The text below walks through data of patent publication USRE30451E, “Novel process for producing antibiotics bleomycin” (priority 1969, dated 1980).

For this data set the following is noted: tumour-inoculated ICR/JCL mice, intraperitoneally once a day for 10 days, doses 25 mg/kg to 0.19 mg/kg, Behres-Karber's method, observed up to 50 days.

On to `Cc1c(N)nc([C@H](CC(N)=O)NC[C@H](N)C(N)=O)nc1C(=O)N[C@H](C(=O)N[C@H](C)[C@@H](O)[C@H](C)C(=O)N[C@H](C(=O)NCCc1nc(-c2nc(C(=O)NCCC[S+](C)C)cs2)cs1)[C@@H](C)O)[C@@H](O[C@@H]1O[C@@H](CO)[C@@H](O)[C@H](O)[C@@H]1O[C@H]1O[C@H](CO)[C@@H](O)[C@H](OC(N)=O)[C@@H]1O)c1c[nH]cn1.[Br-]` [Compound 1, Bleomycin A2, reference compound], for which the LD50 amounted to 9.4.
